pIC50: −log10 of the molar value.

By UniProt entry, the sequences of proteins in these tests, tags left out.
UniProt Q15910, whole entry Y641F: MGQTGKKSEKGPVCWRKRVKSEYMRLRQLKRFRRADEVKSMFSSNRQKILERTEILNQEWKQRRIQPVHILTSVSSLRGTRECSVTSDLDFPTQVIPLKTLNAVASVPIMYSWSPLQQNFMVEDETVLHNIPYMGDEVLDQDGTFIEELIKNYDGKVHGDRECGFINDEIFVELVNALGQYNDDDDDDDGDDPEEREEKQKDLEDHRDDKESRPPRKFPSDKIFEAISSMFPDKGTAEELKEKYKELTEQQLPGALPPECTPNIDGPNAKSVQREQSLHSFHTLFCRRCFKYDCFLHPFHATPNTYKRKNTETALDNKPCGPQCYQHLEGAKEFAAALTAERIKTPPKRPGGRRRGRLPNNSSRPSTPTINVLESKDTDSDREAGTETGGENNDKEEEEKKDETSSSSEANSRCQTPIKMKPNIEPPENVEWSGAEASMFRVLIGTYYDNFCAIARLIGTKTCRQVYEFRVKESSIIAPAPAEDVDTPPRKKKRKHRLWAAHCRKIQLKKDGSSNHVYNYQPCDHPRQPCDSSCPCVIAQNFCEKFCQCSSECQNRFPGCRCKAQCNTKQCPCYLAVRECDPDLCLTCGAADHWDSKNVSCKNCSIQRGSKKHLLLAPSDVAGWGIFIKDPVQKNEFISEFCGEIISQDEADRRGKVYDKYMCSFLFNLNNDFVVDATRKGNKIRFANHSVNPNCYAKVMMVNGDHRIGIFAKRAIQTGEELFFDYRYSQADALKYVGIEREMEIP
UniProt Q09028, whole entry partner: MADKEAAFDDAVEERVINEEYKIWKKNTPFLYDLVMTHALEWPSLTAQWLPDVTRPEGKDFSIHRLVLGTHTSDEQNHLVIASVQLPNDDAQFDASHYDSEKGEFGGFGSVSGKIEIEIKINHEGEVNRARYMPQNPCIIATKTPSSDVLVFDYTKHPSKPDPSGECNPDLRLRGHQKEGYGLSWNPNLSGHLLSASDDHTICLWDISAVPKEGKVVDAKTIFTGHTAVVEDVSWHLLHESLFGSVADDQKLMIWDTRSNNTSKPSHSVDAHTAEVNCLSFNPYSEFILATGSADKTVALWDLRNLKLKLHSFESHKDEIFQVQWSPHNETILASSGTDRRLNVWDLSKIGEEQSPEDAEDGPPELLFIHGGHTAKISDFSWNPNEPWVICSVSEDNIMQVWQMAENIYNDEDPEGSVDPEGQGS
UniProt O75530, whole entry partner: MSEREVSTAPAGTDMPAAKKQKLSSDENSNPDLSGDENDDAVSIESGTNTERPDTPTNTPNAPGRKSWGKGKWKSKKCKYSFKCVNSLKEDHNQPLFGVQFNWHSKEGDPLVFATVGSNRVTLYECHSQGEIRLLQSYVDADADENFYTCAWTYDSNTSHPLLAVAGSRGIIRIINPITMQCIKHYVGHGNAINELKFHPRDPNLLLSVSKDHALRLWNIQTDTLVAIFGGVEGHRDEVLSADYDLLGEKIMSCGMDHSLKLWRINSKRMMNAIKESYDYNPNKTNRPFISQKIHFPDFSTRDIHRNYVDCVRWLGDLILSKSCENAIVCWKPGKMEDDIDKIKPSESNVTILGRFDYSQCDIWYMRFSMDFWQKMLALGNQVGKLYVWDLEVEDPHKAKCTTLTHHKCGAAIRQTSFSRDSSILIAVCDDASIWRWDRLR
UniProt Q6ZN18, whole entry partner: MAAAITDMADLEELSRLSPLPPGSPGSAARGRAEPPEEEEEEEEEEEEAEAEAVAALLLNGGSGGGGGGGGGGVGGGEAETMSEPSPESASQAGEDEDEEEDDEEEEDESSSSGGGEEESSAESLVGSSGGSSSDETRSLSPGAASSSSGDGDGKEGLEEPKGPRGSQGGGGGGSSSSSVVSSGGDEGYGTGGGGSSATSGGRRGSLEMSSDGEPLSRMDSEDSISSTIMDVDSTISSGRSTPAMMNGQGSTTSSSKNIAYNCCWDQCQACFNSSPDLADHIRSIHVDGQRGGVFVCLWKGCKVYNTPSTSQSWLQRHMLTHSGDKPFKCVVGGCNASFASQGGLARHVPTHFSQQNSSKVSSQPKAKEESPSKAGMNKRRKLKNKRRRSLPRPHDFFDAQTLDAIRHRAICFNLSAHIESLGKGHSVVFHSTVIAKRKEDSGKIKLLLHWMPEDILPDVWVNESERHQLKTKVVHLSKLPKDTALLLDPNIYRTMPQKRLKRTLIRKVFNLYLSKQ
UniProt Q15022, whole entry partner: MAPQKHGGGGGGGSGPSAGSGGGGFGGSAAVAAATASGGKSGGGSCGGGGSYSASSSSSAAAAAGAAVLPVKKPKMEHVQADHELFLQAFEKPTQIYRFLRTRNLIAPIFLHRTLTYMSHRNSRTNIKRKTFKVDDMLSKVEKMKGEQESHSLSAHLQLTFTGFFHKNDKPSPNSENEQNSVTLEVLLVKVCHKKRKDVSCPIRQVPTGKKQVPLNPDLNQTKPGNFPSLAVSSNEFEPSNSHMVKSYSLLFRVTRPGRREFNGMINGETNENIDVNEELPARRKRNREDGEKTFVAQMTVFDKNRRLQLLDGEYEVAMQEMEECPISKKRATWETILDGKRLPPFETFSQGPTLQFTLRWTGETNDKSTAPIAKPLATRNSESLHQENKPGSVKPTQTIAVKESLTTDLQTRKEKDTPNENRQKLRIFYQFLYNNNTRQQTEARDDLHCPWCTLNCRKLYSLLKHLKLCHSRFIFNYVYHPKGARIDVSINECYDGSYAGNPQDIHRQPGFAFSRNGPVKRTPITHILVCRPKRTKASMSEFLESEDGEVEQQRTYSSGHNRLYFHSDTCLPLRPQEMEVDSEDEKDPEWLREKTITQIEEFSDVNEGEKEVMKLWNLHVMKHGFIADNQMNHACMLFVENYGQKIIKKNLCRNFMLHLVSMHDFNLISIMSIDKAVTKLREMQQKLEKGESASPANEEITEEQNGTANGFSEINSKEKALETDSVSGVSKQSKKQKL

The target of assay [1] is Recombinant PRC2 (EZH2-Y641F) (Homo sapiens, UniProt Q15910, Y641F). The assay is described as follows: In vitro methyltransferase activity test (LANCE Ultra).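 Also: compounds tested as an 8-point threefold dilution series, fluorescence read after 1 h detection step at room temperature, IC50 derived from a four-parameter curve fit.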 Particulars: read-out: EZH2 Y641F IC50, LANCE Ultra detection, 3 hours reaction. Background: TR-FRET usually uses a lanthanide donor and a delayed reading to cut background.
For assay [2], the system named is Pfeiffer cells. The assay is described as follows: Cell proliferation test (cell counting kit-8, 6 days). Particulars: read-out: Pfeiffer IC50, 6 days' growth.

In the case of `CCN(c1cc(-c2ccc(N3CCN(C)CC3)nc2)cc2c(NCc3c(C)cc(C)[nH]c3=O)nccc12)C1CCN(C(C)C)CC1`, the pIC50 in assay [1] is 7.04.
On to `CCN(c1cc(C(C)C)cc2c(NCc3c(C)cc(C)[nH]c3=O)nccc12)C1CCC(N(C)C)CC1` (single isomer, unassigned) [Z-213], for which the pIC50 in assay [2] was 6.16; in assay [1], 6.94.
The corresponding values for `CCN(c1cc(-c2ccc(N3CCN(C)CC3)nc2)cc2c(NCc3c(C)cc(C)[nH]c3=O)nccc12)C1CCC(N(C)C)CC1` (stereo not shown) are 6.39 and more than 7.85.
The corresponding values for `CCN(c1cc(-c2cnc(N3CCN(C)CC3)nc2)cc2c(NCc3c(C)cc(C)[nH]c3=O)nccc12)[C@H]1CC[C@H](N(C)C)CC1` are 6.37 and 7.46.
The corresponding values for `CCN(c1cc(-c2ccc(N3CCN(C)CC3)nc2)cc2c(NCc3c(C)cc(C)[nH]c3=O)nccc12)[C@H]1CC[C@H](O)CC1` are 6.13 and 7.02.
As for `CCN(c1cc(-c2ccc(N3CCN(C)CC3)nc2)cc2c(NCc3c(C)cc(C)[nH]c3=O)nccc12)[C@H]1CC[C@@H](O)CC1`, the pIC50 in assay [2] is 6.99; in assay [1], 7.49.
Take `CCN(c1cc(-c2ccc(N3CCN(C)CC3)nc2)cc2c(NCc3c(C)cc(C)[nH]c3=O)nccc12)[C@H]1CC[C@H](N(C)C)CC1`: the pIC50 is 6.11 in assay [2] and 8.00 in assay [1].
Regarding `CCN(c1cc(-c2ccc(N3CCN(C)CC3)nc2)cc2c(NCc3c(C)cc(C)[nH]c3=O)nccc12)[C@H]1CC[C@@H](N(C)C)CC1`, the pIC50 in assay [2] is 6.50; in assay [1], 7.96.
For the molecule `CCN(c1cc(-c2cnc(N3CCN(C)CC3)nc2)cc2c(NCc3c(C)cc(C)[nH]c3=O)nccc12)[C@H]1CC[C@@H](N(C)C)CC1`, the pIC50 in assay [1] was more than 8.30.
For `CCN(c1cc(C(C)C)cc2c(NCc3c(C)cc(C)[nH]c3=O)nccc12)C1CCC(N(C)C)CC1` (single isomer, unassigned) [Z-210], the figures for the pIC50 in assay [2] and in assay [1] were 6.47 and 6.71, respectively.
The corresponding values for `CCN(c1cc(Cl)cc2c(NCc3c(OC)cc(C)[nH]c3=O)nccc12)[C@H]1CC[C@@H](N(C)C)CC1` are 6.22 and 8.10.
The corresponding values for `CCN(c1cc(Cl)cc2c(NCc3c(C)cc(C)[nH]c3=O)nccc12)[C@H]1CC[C@@H](N2CC(OC)C2)CC1` are 6.45 and 7.21.
For `CCN(c1cc(-c2cnc(CN3CCN(C)CC3)c(F)c2)cc2c(NCc3c(C)cc(C)[nH]c3=O)nccc12)[C@H]1CC[C@H](N(C)C)CC1`, in that order: 6.35 and 8.00.
Turning to `CCN(c1cc(-c2ccc(N3CCN(C)CC3)cc2)cc2c(NCc3c(C)cc(C)[nH]c3=O)nccc12)[C@H]1CC[C@H](N(C)C)CC1`, the pIC50 was 6.24 in assay [2] and 7.17 in assay [1].
Take `CCN(c1cc(-c2ccc(N3CCOCC3)nc2)cc2c(NCc3c(C)cc(C)[nH]c3=O)nccc12)[C@H]1CC[C@H](N(C)C)CC1`: the pIC50 in assay [2] is 6.20; in assay [1], 7.46.
For `CCN(c1cc(-c2ccc(OCCOC)cc2)cc2c(NCc3c(C)cc(C)[nH]c3=O)nccc12)C1CCC(N(C)C)CC1` (stereo not shown), the negative-log IC50 (pIC50) in assay [1] was 7.24.
`CCN(c1cc(Cl)cc2c(NCc3c(OC)cc(C)[nH]c3=O)nccc12)[C@H]1CC[C@H](N(C)C)CC1`: the figures for the pIC50 in assay [2] and in assay [1] were 7.02 and 7.43, respectively.
The corresponding values for `CCN(c1cc(Cl)cc2c(NCc3c(C)cc(C)[nH]c3=O)nccc12)[C@H]1CC[C@H](N(C)C)CC1` are 6.23 and 7.13.
The corresponding values for `CCN(c1cc(-c2cccnc2)cc2c(NCc3c(C)cc(C)[nH]c3=O)nccc12)C1CCC(N(C)C)CC1` (stereo not shown) are 6.32 and 7.77.
Consider `CCN(c1cc(-c2ccc(N3CCOCC3)nc2)cc2c(NCc3c(C)cc(C)[nH]c3=O)nccc12)[C@H]1CC[C@@H](N(C)C)CC1`, for which the values for the pIC50 in assay [2] and in assay [1] were 6.16 and more than 7.85, respectively.

A word on the pIC50: it is the negative decadic logarithm of the IC50, by convention in mol/L.

For the origin of these results see patent US20200262813A1, “1,5,7-TRISUBSTITUTED ISOQUINOLINE DERIVATIVES, PREPARATION THEREOF, AND USE THEREOF IN MEDICINES” (SHANGHAI HAIYAN PHARMACEUTICAL TECHNOLOGY CO., LTD., priority 2016, published 2020).
